Results: patent US20070202515A1, “Promac signature application” (PATHOLOGICA, LLC., priority 2005, published 2007)

Test system: G1P3, GPR43, IFIT2, ORM1, TNFSF10
Test: LC5-CI quantitative RT-PCR classification index on PBMCs
Parameters: species or system human
Settings: in vivo
Protocol: The 361 probe sets encompassed 280 known genes or transcripts associated with various functions including the α/β interferon response (gene symbol ═IFIT2, IFI27), signal transduction (IRAK3, TNFAIP6) and the immune response (CD80, FCGR2A). […] Thus, the changes observed in all three populations are not primarily a response to in vitro incubation. […] Aliquots of the RNA preparations were then RT-PCR amplified using quantitative real time methods employing a Light-Cycler^36. The signals obtained were normalized against the signal obtained with primers for β-actin according to the formula Ctactin−Ctgene=NSig where Ct=the threshold cycle for the indicated gene and NSig=the normalized signal.
The existence of significant changes in the gene expression of PBMCs of ALS patients relative to controls raised the possibility that these changes could be used to assist in the diagnosis of ALS. […] ALS and control patients were divided into training and test sets and the actin normalized signal for each sample with each primer set was determined as described above. Then the voting weights (modified Rs) were calculated using the test samples according to the formula Mod R=(Mean ALS−Mean CON)/(StDev ALS+StDev CON) calculated using 13 ALS samples & 11 controls.
Next the inflection point or the mid point between the ALS and control samples is calculated according to MID=(MeanALS+MeanCON)/2 […]

Nc1nc2ccc(OC(F)(F)F)cc2s1 [Riluzole, reference compound]
mean LC5-CI scores, patients taking vs not taking the drug: not significantly different
